Biological target: aldosterone receptor (Rattus norvegicus, UniProt P22199)
Assay: Binding inhibition test for aldosterone receptor ([3H]aldosterone, rat renal soluble fraction)
Conditions: read-out: MR IC50, [3H]aldosterone 2 nM, in the presence of 2 μM RU-486, 4° C. about 18 hours

The chains behind the UniProt entries cited, without tags or fusion partners.
UniProt P22199, whole entry: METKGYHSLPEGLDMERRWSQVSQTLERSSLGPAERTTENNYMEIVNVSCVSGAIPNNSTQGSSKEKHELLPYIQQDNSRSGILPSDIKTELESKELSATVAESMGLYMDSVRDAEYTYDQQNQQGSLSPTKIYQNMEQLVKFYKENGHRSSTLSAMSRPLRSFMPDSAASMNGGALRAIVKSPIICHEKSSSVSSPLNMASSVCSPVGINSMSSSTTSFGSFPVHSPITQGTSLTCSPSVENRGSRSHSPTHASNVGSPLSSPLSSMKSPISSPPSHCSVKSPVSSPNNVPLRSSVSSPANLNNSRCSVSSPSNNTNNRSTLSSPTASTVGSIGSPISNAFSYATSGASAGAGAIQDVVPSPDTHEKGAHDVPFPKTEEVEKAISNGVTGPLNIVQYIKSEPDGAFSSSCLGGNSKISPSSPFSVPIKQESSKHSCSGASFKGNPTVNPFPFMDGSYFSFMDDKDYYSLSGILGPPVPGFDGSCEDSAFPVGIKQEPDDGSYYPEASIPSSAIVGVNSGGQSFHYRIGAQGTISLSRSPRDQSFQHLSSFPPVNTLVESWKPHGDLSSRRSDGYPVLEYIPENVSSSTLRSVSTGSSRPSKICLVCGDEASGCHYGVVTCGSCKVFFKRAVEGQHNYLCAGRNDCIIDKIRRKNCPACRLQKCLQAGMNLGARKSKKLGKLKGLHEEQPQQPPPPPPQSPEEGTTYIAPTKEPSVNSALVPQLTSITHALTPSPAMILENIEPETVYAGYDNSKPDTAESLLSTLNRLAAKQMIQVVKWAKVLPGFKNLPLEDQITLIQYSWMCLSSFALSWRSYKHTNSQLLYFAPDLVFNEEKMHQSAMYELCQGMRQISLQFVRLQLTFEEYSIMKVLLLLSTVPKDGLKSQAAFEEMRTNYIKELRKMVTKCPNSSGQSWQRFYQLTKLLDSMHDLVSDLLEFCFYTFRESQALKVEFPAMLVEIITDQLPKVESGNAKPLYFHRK

IC50 | Structure (SMILES)
230 nM | CCCN(CCC)c1cc(C(=O)Nc2ccc(S(N)(=O)=O)c(OC)c2)ccc1-c1ccccc1OC(F)(F)F
330 nM | COc1cc(NC(=O)c2ccc(-c3ccccc3OC(F)(F)F)c(CNCCF)c2)ccc1S(N)(=O)=O

The next lines start with the compound.

Structure (SMILES) | IC50
CS(=O)(=O)c1ccc(NC(=O)c2ccc(-c3ccccc3OC(F)(F)F)c(Cn3cnnn3)c2)cc1 | < 10000 nM
COc1cc(NC(=O)c2ccc(-c3ccccc3OC(F)(F)F)c(CN3CC[C@@H](F)C3)c2)ccc1S(N)(=O)=O | 210 nM
COc1cc(NC(=O)c2ccc(-c3ccccc3OC(F)(F)F)c(CNCC(F)F)c2)ccc1S(N)(=O)=O | 260 nM
COCCN(CCOC)Cc1cc(C(=O)Nc2ccc(S(C)(=O)=O)cc2)ccc1-c1ccccc1OC(F)(F)F | 170 nM

From US20130116227A1, “BIARYL AMIDE DERIVATIVE OR PHARMACEUTICALLY ACCEPTABLE SALT THEREOF” (DAINIPPON SUMITOMO PHARMA CO., LTD., priority 2010, published 2013)
